{"sequences": {"note": "Sequences of proteins named here, by UniProt entry; tags and fusion partners are left off.", "UniProt P00352, whole entry": "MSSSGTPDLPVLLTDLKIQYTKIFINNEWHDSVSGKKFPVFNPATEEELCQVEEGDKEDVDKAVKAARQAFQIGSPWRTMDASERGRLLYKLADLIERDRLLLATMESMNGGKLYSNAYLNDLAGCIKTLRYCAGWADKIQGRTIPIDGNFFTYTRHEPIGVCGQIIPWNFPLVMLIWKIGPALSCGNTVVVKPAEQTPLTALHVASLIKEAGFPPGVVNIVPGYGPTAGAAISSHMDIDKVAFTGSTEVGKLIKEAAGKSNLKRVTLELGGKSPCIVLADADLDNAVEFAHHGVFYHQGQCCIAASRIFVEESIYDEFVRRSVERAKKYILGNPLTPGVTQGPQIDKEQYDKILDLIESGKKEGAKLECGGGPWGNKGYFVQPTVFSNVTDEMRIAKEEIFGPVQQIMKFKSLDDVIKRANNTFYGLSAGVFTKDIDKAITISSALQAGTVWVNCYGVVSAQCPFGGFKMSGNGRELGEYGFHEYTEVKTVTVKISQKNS", "UniProt P30838, whole entry": "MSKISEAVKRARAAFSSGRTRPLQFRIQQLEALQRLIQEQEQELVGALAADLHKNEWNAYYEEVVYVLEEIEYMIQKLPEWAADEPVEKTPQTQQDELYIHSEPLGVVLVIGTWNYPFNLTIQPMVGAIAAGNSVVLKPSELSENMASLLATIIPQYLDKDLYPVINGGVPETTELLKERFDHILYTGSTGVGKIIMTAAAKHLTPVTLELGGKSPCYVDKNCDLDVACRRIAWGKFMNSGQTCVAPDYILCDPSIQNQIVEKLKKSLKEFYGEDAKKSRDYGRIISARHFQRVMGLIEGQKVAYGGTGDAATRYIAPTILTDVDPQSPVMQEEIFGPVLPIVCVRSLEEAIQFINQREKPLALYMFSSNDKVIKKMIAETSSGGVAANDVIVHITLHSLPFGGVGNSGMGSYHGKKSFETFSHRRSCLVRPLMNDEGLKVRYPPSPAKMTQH"}, "source": "patent US12616678B2", "about": "“Methods to of aldehyde dehydrogenases for treatment of cancer” (THE PENN STATE RESEARCH FOUNDATION, priority 2020, dated 2026)", "key": {"[1]": {"biological_target": "ALDH1A1 (Homo sapiens, UniProt P00352)", "assay": "ALDH isoform-specific enzyme assay, ALDH1A1 (NADH absorbance)", "type": "biochemical", "details": "read-out: IC50s ALDH1A1"}, "[2]": {"biological_target": "ALDH3A1 (Homo sapiens, UniProt P30838)", "assay": "ALDH isoform-specific enzyme assay, ALDH3A1 (NADH absorbance)", "type": "biochemical", "details": "read-out: IC50s ALDH3A1"}}}
{"smiles": "CS(=O)(=O)Nc1ccc(-c2coc3cc(OCc4cccc(C(=O)O)c4)ccc3c2=O)cc1", "values": [{"measurement": "IC50", "setting": "[1]", "result": 2430, "unit": "nM"}, {"measurement": "IC50", "setting": "[2]", "result": 2720, "unit": "nM"}]}
